A549 tox = kills or reduces viability of A549 cells in Nrf2 counter-screen | A549 ARE-Fluc cells, CellTiter-Fluor viability, 18-24 h | Potency, µM (highest dose often 46 µM), for the others: at the top dose activity change, negative = cytotoxicity, usual class: inhibitors | 390,000 compounds, 0.16% hits | AID 504648; also: potency is read from the fitted curve at half-maximal effect; % is scaled to controls: 0 for no effect and ±100 for the full control effect
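A549 ARE_Fluc cells in 5% FBS OPTI-MEM were exposed to compounds in concentration-response for 18-24 h at 37 deg C. Viability was read by CellTiter-Fluor fluorescence (Ex 405/Em 525) after 30 min, before the luciferase read.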
miR-21 reporter = miR-21 reporter, rising signal; HeLa miR-21 FLuc reporter, luciferase, 48 h; Potency, µM (titrated, usually from 38.3 µM), without a hit: top-dose reporter change, positive = more light; AID 2288; 340,000 tested, under 10 active; active = well fitted rising curve with a large enough effect; inconclusive = small, poorly fitted or top-dose-only effect; inactive = no such curve, though single readings can be large or run the other way;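 further: % of control where 0% means no effect; miR-21 action dims this reporter so a rising signal means less miR-21 action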
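Luminescence from a firefly luciferase reporter carrying a miR-21 binding site downstream, stably expressed under a CMV promoter in HeLa cells that make miR-21 endogenously, reports miRNA modulation after 48 h compound exposure up to approximately 40uM final.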
Nrf2 block = inhibitors of Nrf2 signaling | A549 ARE-Fluc reporter, luciferase luminescence, 18-24 h | Potency, µM (series often up to 46 µM), inactives show top-dose activity change, negative = inhibition, hits mostly inhibitors | 360,000 compounds, 2.1% hits; also: potency is read from the fitted curve at half-maximal effect; % is scaled to controls: 0 for no effect and ±100 for the full control effect; nearly all actives have a fitted effect of over 60% in size
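Two sequential reads on A549 ARE_Fluc cells exposed to compound for 18-24 h: a CellTiter-Fluor fluorescence read for viability, then a luciferase luminescence read for Nrf2/ARE activity.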
IL-2 act = activates IL-2 in a cell-based reporter assay. AID 652025. 360,000 compounds, 0.065% hits. IL-2 activation reporter assay, cell-based qHTS; stimulated with anti-CD3/CD4/CD28 beads; in transgenic mouse T cells. activation, % (series mostly up to about 46 µM); in the data active = activation above about 50%; inconclusive = mostly about 30% to 49%; also: 0% is about no effect
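First, unstimulated transgenic mouse T cells were exposed to compound for 60 min. Next, anti-CD3/anti-CD4-coated beads with anti-CD28 were added. Finally, after 18 h at 37 degrees C, EGFP and DsRed were imaged.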
Nrf2 activator = activates Nrf2 signaling; AREc32 ARE-luciferase reporter (MCF7-derived line), luminescence, 24 h; 410,000 compounds, 0.31% hits; Potency, µM (top dose mostly 46.1 µM), for inactives: at the highest dose activation, usual class: activators; also: potency is read from the fitted curve at half-maximal effect; % of control where 0% means no effect; nearly all actives have a fitted effect of over 65% in size
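Nrf2 activation is followed as ARE-luciferase induction in the AREc32 line after one day of compound treatment; luminescence is read with Steady-Glo.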
ClpP mod = qHTS Assay for Activators of ClpP; purified B. subtilis ClpP, FRET peptide cleavage, 20 min; AID 651965, 2013; Potency, µM (highest dose often 57.5 µM), for the others: at the highest dose activity change, negative = active; 340,000 compounds, 1.9% hits; ATP-dependent Clp protease proteolytic subunit (Bacillus subtilis (strain 168)), P80244; active = well fitted falling curve with a large enough effect; inconclusive = small, poorly fitted or top-dose-only effect; inactive = no such curve, though single readings can be large or run the other way; also: potency is read from the fitted curve at half-maximal effect; the source files actives as falling curves though it sought activators and does not explain the sign; nearly all actives have a fitted effect of over 65% in size
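Buffer: 100 mM Tris/HCl pH8, 100 mM KCl, 0.05% low protease BSA, 2.5% glycerol, 0.01% Tween-20. ClpP 10 microg/mL final; 20 min RT; delta FRET normalized to ADEP and DMSO controls.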
* marks the source's active call; other numbers are inactive results; ? = inconclusive; . = no result given; ! = repeats disagree. Sampled rows, rich in hits. Any-hit rate of the full collection: about 3.7%. Unless noted, calls follow the shape of the dose curve; as a rule, active = well fitted curve in the direction sought with a large enough effect; inconclusive = small, poorly fitted or top-dose-only effect, or another doubt; inactive = no such curve, though single readings can be large; an effect the other way counts as inactive or inconclusive.

The chains behind the UniProt entries cited, without tags or fusion partners.
ATP-dependent Clp protease proteolytic subunit (Bacillus subtilis (strain 168)), P80244, UniProt P80244, whole entry, looked up: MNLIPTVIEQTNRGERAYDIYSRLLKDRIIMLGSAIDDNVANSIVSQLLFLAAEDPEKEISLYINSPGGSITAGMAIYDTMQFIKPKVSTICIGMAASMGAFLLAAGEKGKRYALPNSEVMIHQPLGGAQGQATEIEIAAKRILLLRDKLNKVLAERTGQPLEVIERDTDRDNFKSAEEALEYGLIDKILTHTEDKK

cpd	structure	A549 tox	miR-21 reporter	Nrf2 block
1	O=C(Nc1ccccc1-c1nc2ccccc2[nH]1)c1ccc(S(=O)(=O)N2CCCCC2)cc1	?	-4.0%	?
2	O=C(Nc1ccccc1-c1nc2ccccc2[nH]1)c1ccc(N2C(=O)CCC2=O)cc1	-10.9%	-1.9%	-17.9%
3	CC1CCCCN1S(=O)(=O)c1ccc(C(=O)Nc2ccccc2-c2nc3ccccc3[nH]2)cc1 (stereo not drawn)	-27.0%	0.1%	23.1µM*
4	CCCc1c(C(=O)Nc2cc(C(C)(C)C)on2)cnn1-c1ccccc1	0.0%	-0.8%	6.51µM*
5	O=C(c1ccccc1)N(C(=O)c1ccccc1)c1ncnc2c1C(c1ccccc1)c1c(ccc3ccccc13)O2 (stereo not drawn)	?	.	2.91µM*!
6	CCOC(=O)CCCC(=O)Nc1ncnc2c1C(c1ccccc1)c1c(ccc3ccccc13)O2 (stereo not drawn)	?	.	?
7	O=C(NCc1ccccc1)Nc1ncnc2c1C(c1ccccc1)c1c(ccc3ccccc13)O2 (stereo not drawn)	0.9%	.	6.3%
8	O=C(CCc1ccccc1)Nc1ncnc2c1C(c1ccccc1)c1c(ccc3ccccc13)O2 (stereo not drawn)	-7.4%	.	4.61µM*
9	Cc1ccc(S(=O)(=O)c2c(Nc3cc(C)ccc3C)sc(C(=O)c3ccc4c(c3)OCO4)c2N)cc1	5.6%	1.2%	.
10	Cc1ccc(C(=O)/C=C/c2ccccc2[N+](=O)[O-])cc1	3.2%	-19.9%	?

cpd	IL-2 act	Nrf2 activator	ClpP mod
1	-1.1	-0.9%	?
2	111.4*	-0.5%	.
3	0.1	-0.1%	12.6µM*
4	-0.9	0.3%	3.1%
5	0.0	3.3%	.
6	6.5	-2.9%	.
7	.	.	.
8	.	.	.
9	.	-1.1%	-10.3%
10	-5.5	0.7%	.

Carrying on:
cpd	structure	A549 tox	miR-21 reporter	Nrf2 block
11	O=C(/C=C\c1ccccc1[N+](=O)[O-])Nc1ccccc1	-1.4%	-48.7%	?
12	O=C(/C=C/c1ccccc1[N+](=O)[O-])c1ccccc1Br	?	28.9%	16.4µM*
13	CCCOc1ccccc1Cn1c(=O)sc2ccccc21	-4.6%	-14.3%	0.9%
14	O=C(NCCC1=CCCCC1)c1ccc2c(c1)sc1nc(-c3ccc(F)cc3)cn12	-1.8%	-5.3%	28.0%
15	Cc1ccc(CC2S/C(=N/N=C/c3ccco3)NC2=O)cc1 (stereo not drawn)	12.0%	1.7%	0.8%
16	O=C1N/C(=N\N=C\c2ccccn2)SC1Cc1cccc(SC(F)F)c1 (stereo not drawn)	-19.1%	0.0%	16.4µM*
17	O=C1N/C(=N\N=C\c2ccc3ncccc3c2)SC1Cc1ccc(SC(F)F)cc1 (stereo not drawn)	-22.8%	-10.6%	?
18	O=C1N/C(=N\N=C\c2cccnc2)SC1Cc1ccc(SC(F)F)cc1 (stereo not drawn)	-20.6%	3.4%	16.4µM*
19	Cc1cccc(CNC(=O)c2ccc(N3Cc4ccccc4Oc4ncccc43)s2)c1	-0.7%	8.7%	10.1%
20	COc1ccc(OC)c(CNC(=O)c2ccc(N3Cc4ccccc4Oc4ncccc43)s2)c1	10.7%	8.9%	?

cpd	IL-2 act	Nrf2 activator	ClpP mod
11	1.0	11.2µM*	0.3%
12	-0.7	-3.7%	.
13	.	-0.5%	0.4%
14	.	-0.7%	-20.1%
15	0.5	4.47µM*	.
16	0.3	-0.7%	-0.5%
17	-3.4	4.3%	2.7%
18	1.0	-0.1%	-0.8%
19	.	-1.0%	28.2µM*
20	.	1.8%	?

Some values from the list:
#17 @ ClpP mod: 2.7%
#14 @ Nrf2 activator: -0.7%

Part of the list above, reduced to miR-21 reporter and IL-2 act.
cpd	canonical_smiles	miR-21 reporter	IL-2 act
14	O=C(NCCC1=CCCCC1)c1ccc2c(c1)sc1nc(-c3ccc(F)cc3)cn12	-5.3%	.
13	CCCOc1ccccc1Cn1c(=O)sc2ccccc21	-14.3%	.

More results
cpd	structure	A549 tox	miR-21 reporter	Nrf2 block
21	COc1cc2c(cc1OC)n(CC(=O)c1ccc(C)cc1)c(=O)n1nc(CCn3nc(C)cc3C)nc21	-6.3%	-6.7%	.
22	Cc1ccc(NC(=O)C2CCCN2S(=O)(=O)c2ccc3nc(-c4ccccc4)[nH]c3c2)cc1F (stereo not drawn)	-3.4%	-2.2%	20.6µM*
23	COc1ccc(NC(=O)C2CCCN2S(=O)(=O)c2ccc3nc(-c4ccccc4)[nH]c3c2)cc1 (stereo not drawn)	1.9%	-2.0%	-3.5%
24	O=C(Nc1c(C(=O)N2CCN(c3ccccc3F)CC2)oc2ccccc12)c1cccc(F)c1	21.9%	-1.0%	-17.3%
25	Cc1ccc(NC(=O)CN2C(=O)COc3ccc(S(=O)(=O)NC4CCCC4)cc32)c(Cl)c1	-5.7%	-3.7%	-10.8%
26	O=C(CSc1nc2ccccc2s1)N/N=C/c1ccc(C(=O)O)cc1	1.5%	-9.5%	?
27	C/C(=N\NC(=O)CSc1nc2ccccc2s1)c1ccco1	18.9%	-5.9%	7.6%
28	O=C(CCCSc1nc2ccccc2s1)NCc1ccco1	-8.7%	-17.9%	5.1%
29	N#C/C(=C\c1ccco1)Sc1nc2ccccc2s1	-3.0%	-29.4%	23.2%
30	O=C(CSc1nc2ccccc2s1)N/N=C/c1ccco1	-0.7%	-7.6%	-2.2%

cpd	IL-2 act	Nrf2 activator	ClpP mod
21	.	0.0%	-0.1%
22	.	-1.3%	?
23	.	-0.2%	-9.3%
24	.	0.7%	84.8%
25	.	0.1%	0.0%
26	0.1	0.0%	-1.8%
27	-0.5	7.08µM*	-2.7%
28	2.6	23.9%	1.2%
29	-3.1	11.2µM*	-2.1%
30	0.7	5.01µM*	-3.0%

(next part)
cpd	structure	A549 tox	miR-21 reporter	Nrf2 block
31	COc1ccc(-c2cn(-c3ccc(C)cc3)c(S(=O)(=O)CC(=O)Nc3ccc(F)cc3)n2)cc1	-20.2%	-2.8%	?
32	CCOc1ccc(C(=O)Nc2ccc(N3CCN(C(=O)c4ccco4)CC3)cc2)cc1Br	-0.6%	.	?
33	CCOc1ccc(C(=O)Nc2ccc(NC(=O)c3ccccc3)cc2)cc1Br	0.2%	1.5%	-3.2%
34	CCOc1ccc(C(=O)Nc2ccc(Cc3ccncc3)cc2)cc1Br	?	1.4%	14.6µM*
35	CCOc1ccc(C(=O)Nc2ccc(N3CCN(C)CC3)cc2)cc1Br	-16.7%	-25.9%	.
36	CC(C(=O)NCCS(=O)(=O)c1ccc(Cl)cc1)S(=O)(=O)c1ccc(Cl)cc1 (stereo not drawn)	-0.5%	-0.5%	9.2µM*
37	CCOc1ccc(-n2c(C)nc3cc(C(=O)NC4CCCC4)ccc32)cc1	-0.1%	0.3%	.
38	Cc1ccc(C(=O)NC(=C(Cl)Cl)S(=O)(=O)c2ccc(Cl)cc2)cc1	?	13.1%	?
39	Cc1ccc(S(=O)(=O)/C(=C/Cl)NC(=O)c2ccccc2)cc1	-7.1%	25.5%	18.4µM*
40	Cc1ccc(C(=O)NC(=C(Cl)Cl)S(=O)(=O)c2ccc(C)cc2)cc1	-12.6%	14.1%	-0.5%
41	CCC(=O)N(CCC(Cc1ccccc1)c1ccco1)Cc1ccco1 (stereo not drawn)	-17.7%	11.3%	16.4µM*

cpd	IL-2 act	Nrf2 activator	ClpP mod
31	.	5.5%	-1.8%
32	0.3	1.6%	43.2%
33	-0.7	0.3%	-10.5%
34	-0.6	2.6%	.
35	2.9	-0.3%	17.8µM*
36	0.7	0.2%	.
37	.	0.2%	-3.6%
38	-0.6	?	-1.2%
39	-3.8	?	-2.3%
40	1.3	11.2µM*	-10.5%
41	-0.1	4.0%	.

Some of these compounds in order of SMILES length, highest first.
cpd	structure	A549 tox	miR-21 reporter	Nrf2 block
36	CC(C(=O)NCCS(=O)(=O)c1ccc(Cl)cc1)S(=O)(=O)c1ccc(Cl)cc1 (stereo not drawn)	-0.5%	-0.5%	9.2µM*
32	CCOc1ccc(C(=O)Nc2ccc(N3CCN(C(=O)c4ccco4)CC3)cc2)cc1Br	-0.6%	.	?
40	Cc1ccc(C(=O)NC(=C(Cl)Cl)S(=O)(=O)c2ccc(C)cc2)cc1	-12.6%	14.1%	-0.5%

cpd	IL-2 act	Nrf2 activator	ClpP mod
36	0.7	0.2%	.
32	0.3	1.6%	43.2%
40	1.3	11.2µM*	-10.5%

Source: PubChem BioAssay (National Center for Advancing Translational Sciences (NCATS))
